## Yeast mating assay B: variants of the scFv Ab-14

Reference: Li et al. 2023, doi:10.1038/s41467-023-39022-2. File: FLAb, binding data.

Target peptide (SARS-CoV-2 spike, HR2 region): PDVDLGDISGINAS

Parent: Ab-14, a human scFv built as VH, a (GGGGS)3 linker, VL. Only the CDRs of the heavy chain vary.
VH: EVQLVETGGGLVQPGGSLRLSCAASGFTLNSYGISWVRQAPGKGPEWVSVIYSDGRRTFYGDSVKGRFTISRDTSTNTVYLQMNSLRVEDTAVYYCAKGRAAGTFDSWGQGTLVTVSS
VL: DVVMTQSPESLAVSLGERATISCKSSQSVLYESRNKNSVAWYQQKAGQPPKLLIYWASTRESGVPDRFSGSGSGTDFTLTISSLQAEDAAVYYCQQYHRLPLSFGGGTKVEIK

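Designed CDR sequences, proposed from the first random library and measured here. Group labels follow the data file (Ctrl: baseline library sampled from a position-specific scoring matrix, with some repeated check sequences; GPLM: also part of the Gaussian process libraries; Gen: genetic algorithm; a sequence that several methods proposed may carry one label only). The scFvs were displayed on barcoded MATa yeast, the peptide on MATalpha yeast. The frequency of each diploid, read from paired DNA barcodes, reflects how well the two displayed proteins bind. Each replicate has its own calibration line, from reference interactions of the BCL2 family. Mating was done six times.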

Each variant is given by its three heavy chain CDRs, as the data file delimits them; those of the parent are GFTLNSYGIS, VIYSDGRRTFYGDSVK, GRAAGTFDS.
Values are log10 of the apparent Kd in nM; lower means stronger binding.
The mean shown is taken over the replicates in which the pair was detected.
An entry "n.d." has no value in the source: the pair was not observed among the diploids in that replicate. This suggests poor binding but is not conclusive.

CDR-H1 | CDR-H2 | CDR-H3 | group | log10 Kd, replicates | log10 Kd (nM), mean | signal with controls
GFTLNSYGIS | VIYSDGVRTFYADSVK | GQAAGTFDS | Ctrl | 0.85 0.66 1.10 0.72 1.80 0.78 | 0.98 | 1 of 18 (1.74)
GFTLNSYGIS | VIYSDGRRTFYGDSVR | GRAAGQFDS | Ctrl | n.d. n.d. n.d. n.d. n.d. n.d. | n.d. | 0 of 18
GFTLNSYGIS | VIYSDGRRTFYGDSVE | GRASGTFDT | Ctrl | n.d. n.d. n.d. n.d. n.d. 2.69 | 2.69 | 0 of 18
GFTLNSYGIS | VIYADGRRTHYHDSVK | GKAAGTFDS | Ctrl | 0.44 0.36 0.54 0.59 -0.14 0.25 | 0.34 | 0 of 18
GFTLNSYGIS | VIYSDGRRTFYGPSVK | GRQAGTPDS | Ctrl | 1.04 n.d. n.d. n.d. n.d. n.d. | 1.04 | 0 of 18
GFSLNSYGIS | VIYSDGRRTFYGDSVK | GKAAGRFLS | Ctrl | n.d. n.d. n.d. n.d. n.d. n.d. | n.d. | 0 of 18
GFTLNSYGIS | VIYSDGRRTYYQDSVK | GRQAGYFDL | Ctrl | n.d. n.d. n.d. n.d. n.d. n.d. | n.d. | 0 of 18
GFTLNDYGIS | VIYSDGRRTAYGDSVK | GRAAGTFHM | Ctrl | 1.47 1.22 0.98 1.74 1.12 0.48 | 1.17 | 1 of 18 (2.07)
GFTLNSYGIS | VIYSDGRRTFYGDDVK | LRAAGTFDS | Ctrl | n.d. n.d. n.d. n.d. n.d. n.d. | n.d. | 0 of 18
GFTLNSYGIS | VIYSDGRRTFYSDDVK | GRATGTFDG | Ctrl | n.d. 0.79 0.05 n.d. 0.58 n.d. | 0.47 | 1 of 18 (-0.16)
GFTLNSYGIS | VIYSDGRRTFYSDSVK | GRAAWTFDS | Ctrl | n.d. n.d. n.d. n.d. n.d. n.d. | n.d. | 1 of 18 (1.59)
GFTLNSYGIS | VIYSDGRRTFYQDSVK | SRAAGTFDS | Ctrl | n.d. n.d. n.d. n.d. 1.43 n.d. | 1.43 | 0 of 18
GETLNSYGIS | VIYSDGRRTFYGDSVV | GRAAGTFDS | Ctrl | n.d. n.d. n.d. n.d. n.d. n.d. | n.d. | 0 of 18
GLDLNSYGIS | VIYMDGRRTFYGDSVK | GRNAGTFDS | Ctrl | n.d. n.d. n.d. n.d. n.d. n.d. | n.d. | 0 of 18
GFTLNSYGIS | VIYSDGWRTFYTDSVK | GRASDTFDS | Ctrl | n.d. n.d. n.d. n.d. n.d. n.d. | n.d. | 0 of 18
GLTLNSYGIS | VIYSDGRRTFYGDSVK | GRNAGTFDS | Ctrl | n.d. n.d. n.d. n.d. n.d. n.d. | n.d. | 0 of 18
GFNLNSYGIS | VIYADGIRTFYGDSVK | GRNAGTFDS | Ctrl | 0.16 0.00 -0.15 0.01 -0.67 0.57 | -0.01 | 0 of 18
GFTLNSYGIS | VIYSDGRRTAYGDSFK | GSAAGTSDS | Ctrl | n.d. n.d. n.d. n.d. n.d. n.d. | n.d. | 0 of 18
QFTLNSYGIS | VIYSDGRRTSYGDSVK | GSAAGTFDS | Ctrl | n.d. n.d. 1.84 1.68 n.d. n.d. | 1.76 | 0 of 18
GFTLNSYGIS | VIYSDGRRTFYKDSVK | GRDAGTFDS | Ctrl | n.d. n.d. 1.75 1.56 n.d. 1.28 | 1.53 | 0 of 18
GFTLNEYGIS | VIYSDGRRTFYGDSVK | GDAAGTFDS | Ctrl | 0.35 0.66 0.58 0.60 0.27 0.44 | 0.48 | 0 of 18
GFNLNSYGSS | VIYSDGLRTAYGDQVK | GRAAGWFDS | Ctrl | n.d. n.d. n.d. n.d. n.d. n.d. | n.d. | 0 of 18
GFTLNSYGIS | VIYSDGRRKFYTDSVK | GRAAGTFDS | Ctrl | 1.13 0.71 0.88 1.96 0.79 1.01 | 1.08 | 0 of 18
GFTLNSYGIS | VIYSDGRRTFTGDSVK | GDAAGTFDS | Ctrl | 1.50 n.d. n.d. n.d. 1.61 n.d. | 1.56 | 1 of 18 (2.27)
GFGLNSYGIS | VIYSDGRRTFYGDSVK | GYAAGTFDS | Ctrl | 0.76 n.d. 1.61 1.67 2.07 1.34 | 1.49 | 0 of 18
GRTLNSYGIS | VIYSDGERTFYEDSVR | GRAAGTFDS | Ctrl | n.d. n.d. n.d. n.d. n.d. n.d. | n.d. | 0 of 18
GFTLNDYGIS | VIYSDGRRTFYGDSVK | GRVAGTFDS | Ctrl | 0.72 1.14 -0.10 0.69 0.69 0.75 | 0.65 | 0 of 18
GFTLNSYGIS | VIYADGRRTFYGDDVA | GRAAGTFDS | Ctrl | 0.67 0.06 0.18 0.24 0.31 1.95 | 0.57 | 0 of 18
GFQLNSYGIS | VIYSDGRRTAYGDSVK | GIASGTFDS | Ctrl | n.d. n.d. n.d. n.d. n.d. n.d. | n.d. | 0 of 18
GFTVNEYGIS | VIYSDGRRTFYGDDVK | GRAAGTFDS | Ctrl | 1.57 0.93 0.66 n.d. 0.44 0.55 | 0.83 | 0 of 18
GFTLNSYGIS | VIYSDGYRTAYADSVK | LRAAGTFDS | Ctrl | n.d. n.d. n.d. n.d. n.d. n.d. | n.d. | 3 of 18 (2.51)
GFTLESYGIS | VIYADGRRTFYGDSVK | GSAAGTFDS | Ctrl+GPLM_Gen | 0.04 0.08 0.24 -0.16 0.10 0.45; 0.38 0.72 0.72 0.40 0.46 0.52 | 0.33 | 0 of 36
GFTLNSYGIS | VIYSDGRRTFYGDSVK | GQAAGTFDI | Ctrl | -0.12 0.69 0.94 1.12 2.27 1.39 | 1.05 | 0 of 18
GHTLDSYGIS | VIYSDGRRTFYGDSVK | GRAKGAFMT | Ctrl | n.d. n.d. n.d. n.d. n.d. n.d. | n.d. | 0 of 18
GFTLNSYGIS | VIYSDGRRKFYGDSVK | GRAAGTFDS | Ctrl | n.d. n.d. n.d. n.d. n.d. n.d. | n.d. | 0 of 18
GFTLNDYGIS | VIYADGRRTFYGDSVK | GRAKGTFDV | Ctrl | n.d. n.d. n.d. n.d. 2.62 n.d. | 2.62 | 0 of 18
GFTLNSYGIS | VIYSDGRRTFYDDSVK | GRAAGTFDS | Ctrl | 1.35 2.08 1.21 0.90 2.81 0.87 | 1.54 | 0 of 18
GFTLNEYGIS | VIYSDGRRTFYGGSVK | GRAASTFDL | Ctrl | n.d. n.d. n.d. n.d. n.d. n.d. | n.d. | 0 of 18
GFTLNSYGIS | VIYSDGRRTFYGDSVK | GRNKGTFDS | Ctrl | n.d. n.d. n.d. n.d. n.d. n.d. | n.d. | 0 of 18
GFTLLSYGIS | VIYSDGRRTFYGDSTK | GRASLTFDS | Ctrl | 0.95 1.83 2.48 0.27 1.48 3.31 | 1.72 | 0 of 18
GFTLNSYGIS | VIYSDGRRTFYGDSVK | GRSSGTFDS | Ctrl | n.d. 2.11 n.d. n.d. n.d. n.d. | 2.11 | 1 of 18 (2.69)
GFTLNSYGIS | VIYADGRRTAYGDSVK | GRLAGTFDS | Ctrl | -0.11 0.17 -0.04 -0.14 -0.24 -0.36 | -0.12 | 0 of 18
GFTLNSYGIS | VMYSDGQRTAYGDSVK | GRAAGTFDS | Ctrl | 1.79 1.08 1.39 1.46 0.78 1.51 | 1.33 | 0 of 18

The closing 4 entries, repeated:

| CDR-H1 | CDR-H2 | CDR-H3 | group | log10 Kd, replicates | log10 Kd (nM), mean | signal with controls |
|---|---|---|---|---|---|---|
| GFTLLSYGIS | VIYSDGRRTFYGDSTK | GRASLTFDS | Ctrl | 0.95 1.83 2.48 0.27 1.48 3.31 | 1.72 | 0 of 18 |
| GFTLNSYGIS | VIYSDGRRTFYGDSVK | GRSSGTFDS | Ctrl | n.d. 2.11 n.d. n.d. n.d. n.d. | 2.11 | 1 of 18 (2.69) |
| GFTLNSYGIS | VIYADGRRTAYGDSVK | GRLAGTFDS | Ctrl | -0.11 0.17 -0.04 -0.14 -0.24 -0.36 | -0.12 | 0 of 18 |
| GFTLNSYGIS | VMYSDGQRTAYGDSVK | GRAAGTFDS | Ctrl | 1.79 1.08 1.39 1.46 0.78 1.51 | 1.33 | 0 of 18 |

The authors' rule: three or more of the six replicates give a measured affinity, fewer mean a poor binder.
A sequence measured in both rounds can read differently, since the two assays cover different ranges.
Some sequences occur more than once in the pool; their replicates are listed entry by entry, parted by semicolons.
Empty control strains, which show no peptide, gave a signal in 1% of pairings with all heavy chain designs; the median was 2.08 and 95% of these signals were weaker than 0.84. No background was subtracted. For each scFv, signals with the empty controls are counted beside the result, with their mean in brackets.